Results published in patent publication US8324211B2, “Inhibitors of bruton's tyrosine kinase” (Roche Palo Alto LLC, priority 2008, dated 2012).

By UniProt entry, the sequences of proteins in these tests, tags left out.
UniProt Q06187, whole entry: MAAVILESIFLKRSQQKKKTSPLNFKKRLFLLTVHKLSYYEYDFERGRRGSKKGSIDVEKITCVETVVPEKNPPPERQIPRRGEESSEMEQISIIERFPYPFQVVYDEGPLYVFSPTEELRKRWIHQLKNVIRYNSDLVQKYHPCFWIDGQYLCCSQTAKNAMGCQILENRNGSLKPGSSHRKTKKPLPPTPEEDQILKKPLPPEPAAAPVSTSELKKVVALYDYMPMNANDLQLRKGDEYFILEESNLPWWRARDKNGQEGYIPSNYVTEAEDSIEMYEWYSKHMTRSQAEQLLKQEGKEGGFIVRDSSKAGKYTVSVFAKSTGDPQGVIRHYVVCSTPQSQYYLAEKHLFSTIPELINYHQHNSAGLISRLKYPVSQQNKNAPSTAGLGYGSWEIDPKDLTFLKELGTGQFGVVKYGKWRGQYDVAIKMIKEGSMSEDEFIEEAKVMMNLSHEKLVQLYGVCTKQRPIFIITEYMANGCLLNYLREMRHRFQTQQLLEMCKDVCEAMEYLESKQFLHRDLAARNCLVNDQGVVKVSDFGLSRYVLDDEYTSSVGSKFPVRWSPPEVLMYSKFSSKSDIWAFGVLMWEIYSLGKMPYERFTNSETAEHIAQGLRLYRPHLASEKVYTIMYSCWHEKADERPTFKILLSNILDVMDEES

Target: Btk enzyme (His-tagged, full-length) (Homo sapiens, UniProt Q06187)
Experiment: Bruton's Tyrosine Kinase (Btk) Inhibition Assay (33P filtration capture)
Details: read-out: Btk inhibition IC50; 100 μM ATP, 30 μM peptide substrate, 30 min at 30° C.
From the text: Bruton's Tyrosine Kinase (Btk) Inhibition Assay
The assay is a capture of radioactive ^33P phosphorylated product through filtration. The interactions of Btk, biotinylated SH2 peptide substrate (Src homology), and ATP lead to phosphorylation of the peptide substrate. Biotinylated product is bound streptavidin sepharose beads. All bound, radiolabeled products are detected by scintillation counter.
Plates assayed are 96-well polypropylene (Greiner) and 96-well 1.2 μm hydrophilic PVDF filter plates (Millipore). Concentrations reported here are final assay concentrations: 10-100 μM compounds in DMSO (Burdick and Jackson), 5-10 nM Btk enzyme (His-tagged, full-length), 30 μM peptide substrate (Biotin-Aca-AAAEEIYGEI-NH2), 100 μM ATP (Sigma), 8 mM imidazole (Sigma, pH 7.2), 8 mM glycerol-2-phosphate (Sigma), 200 μM EGTA (Roche Diagnostics), 1 mM MnCl2 (Sigma), 20 mM MgCl2 (Sigma), 0.1 mg/ml BSA (Sigma), 2 mM DTT (Sigma), 1 μCi^33P ATP (Amersham), 20% streptavidin sepharose beads (Amersham), 50 mM EDTA (Gibco), 2 M NaCl (Gibco), 2 M NaCl w/1% phosphoric acid (Gibco), microscint-20 (Perkin Elmer).
IC50 determinations are calculated from 10 data points per compound utilizing data produced from a standard 96-well plate assay template. […] Background was counted in the absence of peptide substrate. Total activity was determined in the presence of peptide substrate. […]

IC50: 13 nM
SMILES: CN(C)c1ccc2c(c1)CCN(c1cccc(-c3cc(Nc4ccn(C)n4)c4nccn4c3)c1CO)C2=O
